Data from PubChem BioAssay AID1259400 (National Center for Advancing Translational Sciences (NCATS), 2018).
The entries are a selection whose mix differs from that of the whole data set. Calls of active or inactive are those of the source.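 The calls were made as follows: active = activity change of -60% or lower, but not beyond a set lower limit; inconclusive = change between -60% and -40%, or beyond the set limit; inactive = change above -40%.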

Sequences of proteins named here, by UniProt entry; tags and fusion partners are left off. A change or cut given only in a name is not applied to a line headed by its entry.
UniProt Q9HBX9: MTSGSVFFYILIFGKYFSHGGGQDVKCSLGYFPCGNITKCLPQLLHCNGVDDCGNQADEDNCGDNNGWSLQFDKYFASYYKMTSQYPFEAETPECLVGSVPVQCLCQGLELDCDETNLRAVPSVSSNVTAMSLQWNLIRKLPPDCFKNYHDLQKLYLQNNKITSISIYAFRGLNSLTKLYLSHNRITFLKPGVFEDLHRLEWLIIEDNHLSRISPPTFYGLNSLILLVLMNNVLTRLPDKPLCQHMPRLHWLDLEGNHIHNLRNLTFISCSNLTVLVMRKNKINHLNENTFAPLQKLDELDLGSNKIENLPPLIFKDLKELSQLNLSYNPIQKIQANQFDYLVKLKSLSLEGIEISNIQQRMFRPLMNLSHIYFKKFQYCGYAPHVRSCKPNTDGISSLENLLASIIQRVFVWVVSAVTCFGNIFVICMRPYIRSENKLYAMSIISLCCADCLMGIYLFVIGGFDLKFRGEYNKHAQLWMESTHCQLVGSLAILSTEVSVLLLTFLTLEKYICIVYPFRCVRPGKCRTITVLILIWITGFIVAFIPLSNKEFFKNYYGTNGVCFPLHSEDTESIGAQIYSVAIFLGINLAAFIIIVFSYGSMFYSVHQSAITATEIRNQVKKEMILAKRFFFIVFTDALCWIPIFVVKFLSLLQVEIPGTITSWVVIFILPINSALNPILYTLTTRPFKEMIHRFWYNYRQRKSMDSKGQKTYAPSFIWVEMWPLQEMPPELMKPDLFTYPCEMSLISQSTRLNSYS

Target: Relaxin receptor 1 (Homo sapiens) (UniProt Q9HBX9)
Assay: qHTS Assay for Antagonists of the Relaxin Receptor RXFP1
Settings: HEK293-RXFP1, relaxin-stimulated cAMP HTRF, 30 min; at 57.5 µM; hits give low values
% is scaled to controls: 0 for no effect and ±100 for the full control effect.

Structure (SMILES) | activity change, negative = inhibition
O=[N+]([O-])c1cccc(NC2=NCC(CBr)S2)c1 (stereo not drawn) | inactive: -3.34%
COC(=O)C1(C)COP(=O)(Nc2ccccc2)OC1 (stereo not drawn) | inactive: -2.48%
O=C(O)CNc1ccc([As](=O)(O)O)cc1 | inactive: 3.29%
O=P1(N(CCCl)CCCl)OCCCS1 (stereo not drawn) | inactive: -22%
O=C(Nc1cc([As](=O)(O)O)ccc1O)c1ccccc1 | inactive: 0.241%
C[N+]1=C2C=CC=CC=C2SC12C([N+](=O)[O-])=CC([N+](=O)[O-])=C[C-]2[N+](=O)[O-] (stereo not drawn) | active: -60.1%
Nc1ccc([As](=O)(O)c2ccc(N)cc2)cc1 | inactive: 12.9%
CCN(/C(=N/P(=O)(N1CCOCC1)N1CCOCC1)N1CCOCC1)c1ccc(OC)cc1 | inactive: -7.81%
CN(C)C(=O)OCCc1n(C)cc[n+]1C | inactive: -2.75%
CC(C)=N/N=C(\N)N[N+](=O)[O-] | inactive: 9.97%
CC(C)c1nc(Nc2ccccc2)n(P(=O)(N(C)C)N(C)C)n1 | inactive: -3.54%
c1cc(-c2nn[nH]n2)ccc1-c1nn[nH]n1 | inactive: 2.86%
CC1CCN(C(=O)Oc2c(Cl)cc(Cl)c3cccnc23)CC1 | inactive: -9.05%
COc1ccc(C2=NCC(CBr)S2)cc1 (stereo not drawn) | inactive: 4.01%
O=[N+]([O-])c1cccc2n[nH]nc12 | inactive: 0.733%
CC(=O)N1C2C3N(C(C)=O)C1C1N(C(C)=O)C(C(N1C(C)=O)N3C(C)=O)N2C(C)=O | inactive: -0.335%
CCc1nc2c(n1)c1c(non1O)c1c2no[n+]1[O-] | inactive: 4.24%
O=[N+]([O-])c1cc([N+](=O)[O-])c(CCNc2ccccc2)c([N+](=O)[O-])c1 | inactive: -38.4%
Cc1ccc(NP(=O)(Oc2ccccc2)Oc2ccccc2)nc1 | inactive: 7.76%
CC(C)C(=O)NC(Sc1ccccc1)C(Cl)(Cl)Cl (stereo not drawn) | inactive: -7.56%

Structure (SMILES) | activity change, negative = inhibition
O=P(Nc1nccs1)(c1ccccc1)c1ccccc1 | inactive: 6.43%
c1nnnn1CCn1cnnn1 | inactive: 5.43%
O=[N+]([O-])c1ccc(O)c(/C=N/Nc2ccc([N+](=O)[O-])cc2[N+](=O)[O-])c1 | inactive: -9.7%
O=[N+]([O-])c1ncn(CCn2cnc([N+](=O)[O-])n2)n1 | inactive: 7.9%
CC(=O)NC(SC(=S)N(C)C)C(Cl)(Cl)Cl (stereo not drawn) | inactive: 0.378%
O=[As](O)(c1ccccc1)c1ccc(O)cc1 | inactive: -12.9%
Nc1ccc([As](=O)(O)c2ccc([N+](=O)[O-])cc2)cc1 | inactive: -7.09%
C(Cc1nn[nH]n1)Cc1nn[nH]n1 | inactive: 16.3%
O=C(OC1CN2CCC1CC2)c1cccc(Cl)c1 (stereo not drawn) | inactive: -10.9%
COc1ccc(N)c([N+](=O)[O-])c1[N+](=O)[O-] | inactive: -22.1%
O=P(Nc1ccccn1)(c1ccc(Br)cc1)c1ccc(Br)cc1 | inactive: -25.8%
CN(C)C1(CNC(=O)c2ccc(Cl)c(S(N)(=O)=O)c2)CCCCC1 | inactive: -8.78%
O=P(Nc1nc2ccccc2s1)(c1ccccc1)c1ccccc1 | inactive: -1.8%
CN(C(=O)Cc1ccccc1)[C@H]1CC[C@@]2(CCCO2)C[C@@H]1N1CCCC1 | inactive: 5.02%
Cc1cc([N+](=O)[O-])cc([N+](=O)[O-])c1O | inactive: -34.1%
Cc1ccc(OP(=O)(Nc2ccccn2)Oc2ccc(C)cc2)cc1 | inactive: -0.63%
CC(=O)NC(SC(=S)N(CC(C)C)CC(C)C)C(Cl)(Cl)Cl (stereo not drawn) | inactive: 0.686%
COC(=O)c1cc2c(s1)N=C(c1ccccc1)N(C)P2(=O)N1CCOCC1 (stereo not drawn) | inactive: -3.87%
CCC(=O)N1C2C3N(C(=O)CC)C1C1N(C(=O)CC)C(C(N1C(=O)CC)N3C(=O)CC)N2C(=O)CC | inactive: -2.43%
O=C(OC1CN2CCC1CC2)c1ccccc1 (stereo not drawn) | inactive: -4.92%

Structure (SMILES) | activity change, negative = inhibition
CN(C)C(=O)Oc1noc2ccccc12 | inactive: -1.53%
Cc1ccccc1OP(=O)(Nc1ccccn1)Oc1ccccc1C | inactive: -17.3%
CC(NC(=O)COC(=O)C(O)(c1ccccc1)c1ccccc1)c1ccccc1 (stereo not drawn) | inactive: -13.9%
CCNC(=S)/N=C(\N)N[N+](=O)[O-] | inactive: 4.36%
O=C(NC1CCS(=O)(=O)C1)NP(=S)(Oc1ccccc1)Oc1ccccc1 (stereo not drawn) | inactive: 9.92%
Cc1ccc(NP(=O)(Oc2cccc(C)c2)Oc2cccc(C)c2)nc1 | inactive: -19.7%
c1ccc(-c2nn[nH]n2)c(-c2nn[nH]n2)c1 | inactive: -5.65%
O=P1(N(CCCl)CCCl)OCCC2CCCCN21 (stereo not drawn) | inactive: 4.85%
COC(=O)C1(C)COP(=O)(NCc2ccccc2)OC1 (stereo not drawn) | inactive: -0.231%
N#C/C(=C\c1ccc(N(CCBr)CCBr)cc1)C(N)=O | inactive: -15.1%
CC(=O)c1ccc(N2CC2c2ccncc2)cc1 (stereo not drawn) | inactive: 6.79%
Cc1ccccc1CN(C)C(=O)COC(=O)C(O)(c1ccccc1)c1ccccc1 | inactive: -5.24%
CC(=O)Nc1ccc(Oc2c([N+](=O)[O-])cc([N+](=O)[O-])cc2[N+](=O)[O-])cc1 | inactive: 2.71%
CC(=O)Nc1ccc([As](=O)(O)O)c(O)c1 | inactive: -6.05%
CCOc1ccc(C2=NCC(CBr)S2)cc1 (stereo not drawn) | inactive: 13.8%
O=P1(Nc2nc3ccc(Cl)cc3s2)COc2ccccc2O1 (stereo not drawn) | inactive: -8.43%
CCc1cc(O)c([N+](=O)[O-])c(C)c1[N+](=O)[O-] | inactive: -4.2%
CC(C)(C)C(=O)NC(Sc1ccccc1)C(Cl)(Cl)Cl (stereo not drawn) | inactive: -17%
